The test has as its target T1, Cytochrome P450 11B2, mitochondrial (Homo sapiens, UniProt P19099).
T1 sequence (P19099 whole entry): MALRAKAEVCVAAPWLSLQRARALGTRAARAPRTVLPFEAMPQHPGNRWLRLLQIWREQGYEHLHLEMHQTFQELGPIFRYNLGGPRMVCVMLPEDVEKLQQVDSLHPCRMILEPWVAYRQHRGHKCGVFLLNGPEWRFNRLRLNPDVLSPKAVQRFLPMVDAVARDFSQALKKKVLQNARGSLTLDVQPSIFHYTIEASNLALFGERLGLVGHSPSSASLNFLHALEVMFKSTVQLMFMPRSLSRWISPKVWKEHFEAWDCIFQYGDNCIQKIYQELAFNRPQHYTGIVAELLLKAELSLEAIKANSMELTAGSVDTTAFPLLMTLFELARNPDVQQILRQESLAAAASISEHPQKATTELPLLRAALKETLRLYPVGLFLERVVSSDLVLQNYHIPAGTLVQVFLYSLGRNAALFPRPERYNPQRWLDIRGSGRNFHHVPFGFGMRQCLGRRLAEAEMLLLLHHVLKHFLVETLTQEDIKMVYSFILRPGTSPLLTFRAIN
Put plainly: Inhibition of human CYP11B2 expressed in hamster V79MZh11B2 cells using [1,2-3H]-11-deoxycorticosterone substrate incubated for 45 mins by HPLC method.

As a reminder, the IC50 is the concentration at which inhibition is half-maximal. A high value points to a need for much substance.

In turn, `CC(C)(C(=O)c1cccnc1)c1cccnc1` [METYRAPONE] displayed a half-inhibitory concentration (IC50) of 72 nM.

Source of the values: ChEMBL document CHEMBL3352054, “Discovery of new 7-substituted-4-imidazolylmethyl coumarins and 4'-substituted-2-imidazolyl acetophenones open analogues as potent and selective inhibitors of steroid-11β-hydroxylase” (Eur J Med Chem, 2015).
